Patent publication US12590134B2, “GLP-1 agonist polypeptide compound and salt thereof, synthesis method therefor and use thereof” (Sinopep-Allsino Biopharmaceutical Co., Ltd., priority 2020, dated 2026)

Amino acid sequences for entries named in this document (tags omitted). Residues count along the entry.
UniProt P43220, 24-463: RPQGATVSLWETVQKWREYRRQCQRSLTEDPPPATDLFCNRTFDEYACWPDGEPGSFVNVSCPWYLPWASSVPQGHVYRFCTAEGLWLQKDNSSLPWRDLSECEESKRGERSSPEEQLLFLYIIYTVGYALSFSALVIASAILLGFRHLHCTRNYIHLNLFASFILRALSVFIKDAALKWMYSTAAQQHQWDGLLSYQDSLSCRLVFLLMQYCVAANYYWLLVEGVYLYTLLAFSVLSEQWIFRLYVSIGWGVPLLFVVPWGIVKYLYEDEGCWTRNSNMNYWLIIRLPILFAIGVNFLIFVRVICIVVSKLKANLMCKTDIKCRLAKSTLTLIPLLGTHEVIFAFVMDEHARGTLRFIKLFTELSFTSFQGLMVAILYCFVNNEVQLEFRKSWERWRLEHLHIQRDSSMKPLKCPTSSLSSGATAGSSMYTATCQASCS

Legend:
human GLP-1R = human GLP-1R (Homo sapiens, UniProt P43220); test: cAMP signal analysis of GLP-1R (GLP-1 receptor agonist activity); format: cell-based; settings: CHO cell line stably expressing human GLP-1R; downstream cAMP signal, LANCE cAMP kit
Procedure: A wild human GLP-1R (NM_002062.5) was subjected to transient transfection and screened for two weeks by 600 μg/ml of hygromycin-B to obtain a cell line which was recombined and integrated into an FlpInCHO (Invitrogen) cell stable expression system. The culture condition of the FlpInCHO cell was as follows: 10% of heat-inactivated fetal calf serum was added to a DMEM culture solution, and the culture was performed in a 5% carbon dioxide cell incubator.
In the test, an LANCE cAMP detection kit was used for measuring the cAMP signal intensity.

[1] = Pharmacokinetic comparison experiment in rats, single subcutaneous injection; settings: rat, in vivo, sc, 0.02 mg/kg
Procedure: A single subcutaneous injection was performed with a dose of 0.02 mg/kg; blood collection was performed by tail clipping, and the blood collection time points were: 0 h, 15 min, 30 min, 1 h, 2 h, 3 h, 4 h, 6 h, 8 h, 24 h, 48 h and 72 h. The compound concentration in plasma was determined by LC-MS/MS, all data were collected and exported by Unifi 1.9.3 software, and Excel software was used for data calculation. A non-compartmental model of DAS 3.0 software was used to calculate the pharmacokinetic parameters of rats after administration.

- EC50 (human GLP-1R): 21.4 ± 1.32 nM
SMILES: CC[C@H](C)[C@H](NC(=O)[C@H](Cc1ccccc1)NC(=O)[C@H](CCC(=O)O)NC(=O)[C@H](CCCCNC(=O)COCCOCCNC(=O)COCCOCCNC(=O)CC[C@H](NC(=O)CCCCCCCCCCCCCCCCC(=O)O)C(=O)O)NC(=O)[C@H](C)NC(=O)[C@H](C)NC(=O)[C@H](CCC(N)=O)NC(=O)CNC(=O)[C@H](CCC(=O)O)NC(=O)[C@H](CC(C)C)NC(=O)[C@H](Cc1ccc(O)cc1)NC(=O)[C@H](CO)NC(=O)[C@H](CO)NC(=O)[C@@H](NC(=O)[C@H](CC(=O)O)NC(=O)[C@H](CO)NC(=O)[C@@H](NC(=O)[C@H](Cc1ccccc1)NC(=O)[C@@H](NC(=O)CNC(=O)[C@H](CCC(=O)O)NC(=O)[C@@](C)(CC)NC(=O)[C@@H](N)Cc1c[nH]cn1)[C@@H](C)O)[C@@H](C)O)C(C)C)C(=O)N[C@@H](C)C(=O)N[C@@H](Cc1c[nH]c2ccccc12)C(=O)N[C@@H](CC(C)C)C(=O)N[C@H](C(=O)N[C@@H](CCCNC(=N)N)C(=O)NCC(=O)N[C@@H](CCCNC(=N)N)C(=O)NCC(=O)O)C(C)C [NO: 2]

- CL/F ([1]; male): 0.15 mL/min/kg
- half-life ([1]; male): 14.2 h
- AUC(0-inf) [1]: 2060 ng·h/mL
- AUC(0-t) [1]: 1970 ng·h/mL
- AUMC(0-t), Mean [1]: 47513.48 h * h * μg/L
- AUMC(0-∞), Mean [1]: 56436.94 h * h * μg/L
- Cmax [1]: 47.2 ng/mL
- R_AUC(t/∞), Mean [1]: 95.30%
- Tmax [1]: 18.7 h
SMILES: CC[C@H](C)[C@H](NC(=O)[C@H](Cc1ccccc1)NC(=O)[C@H](CCC(=O)O)NC(=O)[C@H](CCCCNC(=O)COCCOCCNC(=O)COCCOCCNC(=O)CC[C@H](NC(=O)CCCCCCCCCCCCCCCCC(=O)O)C(=O)O)NC(=O)[C@H](C)NC(=O)[C@H](C)NC(=O)[C@H](CCC(N)=O)NC(=O)CNC(=O)[C@H](CCC(=O)O)NC(=O)[C@H](CC(C)C)NC(=O)[C@H](Cc1ccc(O)cc1)NC(=O)[C@H](CO)NC(=O)[C@H](CO)NC(=O)[C@@H](NC(=O)[C@H](CC(=O)O)NC(=O)[C@H](CO)NC(=O)[C@@H](NC(=O)[C@H](Cc1ccccc1)NC(=O)[C@@H](NC(=O)CNC(=O)[C@H](CCC(=O)O)NC(=O)[C@](C)(CC)NC(=O)[C@@H](N)Cc1c[nH]cn1)[C@@H](C)O)[C@@H](C)O)C(C)C)C(=O)N[C@@H](C)C(=O)N[C@@H](Cc1c[nH]c2ccccc12)C(=O)N[C@@H](CC(C)C)C(=O)N[C@H](C(=O)N[C@@H](CCCNC(=N)N)C(=O)NCC(=O)N[C@@H](CCCNC(=N)N)C(=O)NCC(=O)O)C(C)C [NO: 4]

- EC50 (human GLP-1R): 0.623 ± 0.0835 nM
SMILES: CC[C@H](C)[C@H](NC(=O)[C@H](Cc1ccccc1)NC(=O)[C@H](CCC(=O)O)NC(=O)[C@H](CCCCNC(=O)COCCOCCNC(=O)COCCOCCNC(=O)CC[C@H](NC(=O)CCCCCCCCCCCCCCCCC(=O)O)C(=O)O)NC(=O)[C@H](C)NC(=O)[C@H](C)NC(=O)[C@H](CCC(N)=O)NC(=O)CNC(=O)[C@H](CCC(=O)O)NC(=O)[C@H](CC(C)C)NC(=O)[C@H](Cc1ccc(O)cc1)NC(=O)[C@H](CO)NC(=O)[C@H](CO)NC(=O)[C@@H](NC(=O)[C@H](CC(=O)O)NC(=O)[C@H](CO)NC(=O)[C@@H](NC(=O)[C@H](Cc1ccccc1)NC(=O)[C@@H](NC(=O)CNC(=O)[C@H](CCC(=O)O)NC(=O)C1(NC(=O)[C@@H](N)Cc2c[nH]cn2)COC1)[C@@H](C)O)[C@@H](C)O)C(C)C)C(=O)N[C@@H](C)C(=O)N[C@@H](Cc1c[nH]c2ccccc12)C(=O)N[C@@H](CC(C)C)C(=O)N[C@H](C(=O)N[C@@H](CCCNC(=N)N)C(=O)NCC(=O)N[C@@H](CCCNC(=N)N)C(=O)NCC(=O)O)C(C)C [NO: 6]

- EC50 (human GLP-1R): 7.92 ± 1.06 nM
SMILES: CC[C@H](NC(=O)[C@@H](N)Cc1c[nH]cn1)C(=O)N[C@@H](CCC(=O)O)C(=O)NCC(=O)N[C@H](C(=O)N[C@@H](Cc1ccccc1)C(=O)N[C@H](C(=O)N[C@@H](CO)C(=O)N[C@@H](CC(=O)O)C(=O)N[C@H](C(=O)N[C@@H](CO)C(=O)N[C@@H](CO)C(=O)N[C@@H](Cc1ccc(O)cc1)C(=O)N[C@@H](CC(C)C)C(=O)N[C@@H](CCC(=O)O)C(=O)NCC(=O)N[C@@H](CCC(N)=O)C(=O)N[C@@H](C)C(=O)N[C@@H](C)C(=O)N[C@@H](CCCCNC(=O)COCCOCCNC(=O)COCCOCCNC(=O)CC[C@H](NC(=O)CCCCCCCCCCCCCCCCC(=O)O)C(=O)O)C(=O)N[C@@H](CCC(=O)O)C(=O)N[C@@H](Cc1ccccc1)C(=O)N[C@H](C(=O)N[C@@H](C)C(=O)N[C@@H](Cc1c[nH]c2ccccc12)C(=O)N[C@@H](CC(C)C)C(=O)N[C@H](C(=O)N[C@@H](CCCNC(=N)N)C(=O)NCC(=O)N[C@@H](CCCNC(=N)N)C(=O)NCC(=O)O)C(C)C)[C@@H](C)CC)C(C)C)[C@@H](C)O)[C@@H](C)O [NO: 8]

- EC50 (human GLP-1R): 0.525 ± 0.052 nM
SMILES: CC[C@@H](NC(=O)[C@@H](N)Cc1c[nH]cn1)C(=O)N[C@@H](CCC(=O)O)C(=O)NCC(=O)N[C@H](C(=O)N[C@@H](Cc1ccccc1)C(=O)N[C@H](C(=O)N[C@@H](CO)C(=O)N[C@@H](CC(=O)O)C(=O)N[C@H](C(=O)N[C@@H](CO)C(=O)N[C@@H](CO)C(=O)N[C@@H](Cc1ccc(O)cc1)C(=O)N[C@@H](CC(C)C)C(=O)N[C@@H](CCC(=O)O)C(=O)NCC(=O)N[C@@H](CCC(N)=O)C(=O)N[C@@H](C)C(=O)N[C@@H](C)C(=O)N[C@@H](CCCCNC(=O)COCCOCCNC(=O)COCCOCCNC(=O)CC[C@H](NC(=O)CCCCCCCCCCCCCCCCC(=O)O)C(=O)O)C(=O)N[C@@H](CCC(=O)O)C(=O)N[C@@H](Cc1ccccc1)C(=O)N[C@H](C(=O)N[C@@H](C)C(=O)N[C@@H](Cc1c[nH]c2ccccc12)C(=O)N[C@@H](CC(C)C)C(=O)N[C@H](C(=O)N[C@@H](CCCNC(=N)N)C(=O)NCC(=O)N[C@@H](CCCNC(=N)N)C(=O)NCC(=O)O)C(C)C)[C@@H](C)CC)C(C)C)[C@@H](C)O)[C@@H](C)O [NO: 10]

- EC50 (human GLP-1R): 8.92 ± 0.31 nM
SMILES: CCSC[C@@H](NC(=O)[C@@H](N)Cc1c[nH]cn1)C(=O)N[C@@H](CCC(=O)O)C(=O)NCC(=O)N[C@H](C(=O)N[C@@H](Cc1ccccc1)C(=O)N[C@H](C(=O)N[C@@H](CO)C(=O)N[C@@H](CC(=O)O)C(=O)N[C@H](C(=O)N[C@@H](CO)C(=O)N[C@@H](CO)C(=O)N[C@@H](Cc1ccc(O)cc1)C(=O)N[C@@H](CC(C)C)C(=O)N[C@@H](CCC(=O)O)C(=O)NCC(=O)N[C@@H](CCC(N)=O)C(=O)N[C@@H](C)C(=O)N[C@@H](C)C(=O)N[C@@H](CCCCNC(=O)COCCOCCNC(=O)COCCOCCNC(=O)CC[C@H](NC(=O)CCCCCCCCCCCCCCCCC(=O)O)C(=O)O)C(=O)N[C@@H](CCC(=O)O)C(=O)N[C@@H](Cc1ccccc1)C(=O)N[C@H](C(=O)N[C@@H](C)C(=O)N[C@@H](Cc1c[nH]c2ccccc12)C(=O)N[C@@H](CC(C)C)C(=O)N[C@H](C(=O)N[C@@H](CCCNC(=N)N)C(=O)NCC(=O)N[C@@H](CCCNC(=N)N)C(=O)NCC(=O)O)C(C)C)[C@@H](C)CC)C(C)C)[C@@H](C)O)[C@@H](C)O [NO: 12]

- EC50 (human GLP-1R): 5.4 ± 0.365 nM
SMILES: CCCC[C@@H](NC(=O)[C@@H](N)Cc1c[nH]cn1)C(=O)N[C@@H](CCC(=O)O)C(=O)NCC(=O)N[C@H](C(=O)N[C@@H](Cc1ccccc1)C(=O)N[C@H](C(=O)N[C@@H](CO)C(=O)N[C@@H](CC(=O)O)C(=O)N[C@H](C(=O)N[C@@H](CO)C(=O)N[C@@H](CO)C(=O)N[C@@H](Cc1ccc(O)cc1)C(=O)N[C@@H](CC(C)C)C(=O)N[C@@H](CCC(=O)O)C(=O)NCC(=O)N[C@@H](CCC(N)=O)C(=O)N[C@@H](C)C(=O)N[C@@H](C)C(=O)N[C@@H](CCCCNC(=O)COCCOCCNC(=O)COCCOCCNC(=O)CC[C@H](NC(=O)CCCCCCCCCCCCCCCCC(=O)O)C(=O)O)C(=O)N[C@@H](CCC(=O)O)C(=O)N[C@@H](Cc1ccccc1)C(=O)N[C@H](C(=O)N[C@@H](C)C(=O)N[C@@H](Cc1c[nH]c2ccccc12)C(=O)N[C@@H](CC(C)C)C(=O)N[C@H](C(=O)N[C@@H](CCCNC(=N)N)C(=O)NCC(=O)N[C@@H](CCCNC(=N)N)C(=O)NCC(=O)O)C(C)C)[C@@H](C)CC)C(C)C)[C@@H](C)O)[C@@H](C)O [NO: 14]

- EC50 (human GLP-1R): 2.51 ± 0.307 nM
SMILES: CCC[C@@H](NC(=O)[C@@H](N)Cc1c[nH]cn1)C(=O)N[C@@H](CCC(=O)O)C(=O)NCC(=O)N[C@H](C(=O)N[C@@H](Cc1ccccc1)C(=O)N[C@H](C(=O)N[C@@H](CO)C(=O)N[C@@H](CC(=O)O)C(=O)N[C@H](C(=O)N[C@@H](CO)C(=O)N[C@@H](CO)C(=O)N[C@@H](Cc1ccc(O)cc1)C(=O)N[C@@H](CC(C)C)C(=O)N[C@@H](CCC(=O)O)C(=O)NCC(=O)N[C@@H](CCC(N)=O)C(=O)N[C@@H](C)C(=O)N[C@@H](C)C(=O)N[C@@H](CCCCNC(=O)COCCOCCNC(=O)COCCOCCNC(=O)CC[C@H](NC(=O)CCCCCCCCCCCCCCCCC(=O)O)C(=O)O)C(=O)N[C@@H](CCC(=O)O)C(=O)N[C@@H](Cc1ccccc1)C(=O)N[C@H](C(=O)N[C@@H](C)C(=O)N[C@@H](Cc1c[nH]c2ccccc12)C(=O)N[C@@H](CC(C)C)C(=O)N[C@H](C(=O)N[C@@H](CCCNC(=N)N)C(=O)NCC(=O)N[C@@H](CCCNC(=N)N)C(=O)NCC(=O)O)C(C)C)[C@@H](C)CC)C(C)C)[C@@H](C)O)[C@@H](C)O [NO: 16]

One block for each compound: values may come before it.
